Earlier results on one substance are cited in publication PMC10491737.

Chains of the proteins cited; added tags and fusions are not shown. Residues count along the entry.
UniProt P11142, whole entry, looked up: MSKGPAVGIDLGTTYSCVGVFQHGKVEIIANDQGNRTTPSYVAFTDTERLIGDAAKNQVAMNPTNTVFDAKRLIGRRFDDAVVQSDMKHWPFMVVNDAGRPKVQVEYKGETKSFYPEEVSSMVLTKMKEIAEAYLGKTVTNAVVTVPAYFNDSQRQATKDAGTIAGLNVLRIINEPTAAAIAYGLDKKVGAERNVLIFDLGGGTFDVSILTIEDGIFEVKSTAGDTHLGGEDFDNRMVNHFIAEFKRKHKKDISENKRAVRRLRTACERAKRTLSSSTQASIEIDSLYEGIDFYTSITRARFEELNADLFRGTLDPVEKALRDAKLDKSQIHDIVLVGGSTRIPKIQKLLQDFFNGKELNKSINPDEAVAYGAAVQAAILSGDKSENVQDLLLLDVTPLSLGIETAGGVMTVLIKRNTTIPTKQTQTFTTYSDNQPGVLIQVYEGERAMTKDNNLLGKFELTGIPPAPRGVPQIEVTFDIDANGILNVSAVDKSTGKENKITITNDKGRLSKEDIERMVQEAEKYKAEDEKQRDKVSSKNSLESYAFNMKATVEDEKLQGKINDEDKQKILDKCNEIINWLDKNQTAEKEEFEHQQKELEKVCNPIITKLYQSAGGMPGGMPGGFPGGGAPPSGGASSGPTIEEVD
UniProt Q9UNE7, 22-154: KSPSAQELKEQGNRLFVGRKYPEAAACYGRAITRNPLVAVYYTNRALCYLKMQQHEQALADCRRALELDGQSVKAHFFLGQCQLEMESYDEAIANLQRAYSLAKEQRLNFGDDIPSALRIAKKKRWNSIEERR

In this series the target is Hsc70 last 10 amino acids (Homo sapiens) (UniProt P11142). The experiment in a line: FP.

CHIP TPR domain (from UniProt Q9UNE7): the Kd is 620 nM.

For orientation: Kd means the constant that tells how readily two partners part at equilibrium.
